# Test results: PubChem BioAssay AID2782 (National Center for Advancing Translational Sciences (NCATS), 2010)
# Only a part is listed here, and it is no random draw. Inconclusive results are not listed. Active and inactive are the calls of the source. Calls come from the whole dose curve; as a rule, active = well fitted inhibition curve with a large enough effect in the polarisation, with a control signal flat (not every such curve was filed as active); inconclusive = small, poorly fitted or top-dose-only effect, or effect the other way, or a change in a side signal; inactive = no such curve, though single readings can be large or run the other way; the % refers to the polarisation.
# Assay: Confirmation of Inhibitors Targeting the Menin-MLL Interaction in MLL Related Leukemias: Competition With Texas Red Labeled MLL-derived Mutant Peptide
# Settings: fluorescence polarization, Texas Red MLL peptide displacement; at 94.6 µM (top of the series)
# % is set by controls: 0 for no effect and ±100 for the full control effect.
smiles,measurement,value
O=[As](O)(c1cccs1)c1cccs1,"FP change, negative = inhibition",inactive: -3.79%
